Test results published in ChEMBL document CHEMBL5380856, “Development of Orally Bioavailable Amidobenzimidazole Analogues Targeting Stimulator of Interferon Gene (STING) Receptor” (J Med Chem, 2023).
Active and inactive are the calls of the source. The rule behind the calls is not given here.

The chains behind the UniProt entries cited, without tags or fusion partners.
UniProt Q86WV6, whole entry, looked up, stated change not applied: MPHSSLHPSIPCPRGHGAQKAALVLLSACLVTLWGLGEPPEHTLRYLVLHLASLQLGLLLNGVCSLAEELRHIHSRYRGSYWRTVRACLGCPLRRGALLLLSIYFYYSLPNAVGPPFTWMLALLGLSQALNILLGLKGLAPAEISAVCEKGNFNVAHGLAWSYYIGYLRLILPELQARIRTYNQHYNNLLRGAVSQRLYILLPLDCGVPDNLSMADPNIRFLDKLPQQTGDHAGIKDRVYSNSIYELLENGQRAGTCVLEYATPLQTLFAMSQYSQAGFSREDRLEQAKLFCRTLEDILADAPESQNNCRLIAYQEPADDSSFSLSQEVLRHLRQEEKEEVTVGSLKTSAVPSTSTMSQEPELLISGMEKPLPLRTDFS

Tests used:
[1] = biological target: T1, Stimulator of interferon genes protein (Homo sapiens, UniProt Q86WV6); experiment: Activation of STING signaling pathway in human THP-1 cells assessed as increase in IFN-beta mRNA level at 10 uM measured after 5 hrs by qRT-PCR analysis; format: cell-based; conditions: filed as activator
[2] = biological target: T1, Stimulator of interferon genes protein; experiment: Activation of STING signaling pathway in human THP-1 cells assessed as increase in CXCL10 mRNA level at 10 uM measured after 24 hrs by qRT-PCR analysis; format: cell-based; conditions: filed as activator
[3] = biological target: T1, Stimulator of interferon genes protein; experiment: Activation of STING signaling pathway in human THP-1 cells assessed as increase in IFN-beta mRNA level incubated for 3 hrs by qRT-PCR analysis; format: cell-based; conditions: filed as activator, dose 2-8 µM
[4] = biological target: T1, Stimulator of interferon genes protein; experiment: Activation of STING signaling pathway in human THP-1 cells assessed as increase in CXCL10 mRNA level incubated for 24 hrs by qRT-PCR analysis; format: cell-based; conditions: filed as activator, dose 2-8 µM
[5] = biological target: T2, Stimulator of interferon genes protein (Mus musculus) (UniProt Q3TBT3); experiment: Activation of STING signalling pathway in mouse RAW264.7 cells assessed as increase in IFN-beta mRNA level at 50 uM incubated for 12 hrs by qRT-PCR analysis; format: cell-based; conditions: filed as activator
T2 sequence (whole entry): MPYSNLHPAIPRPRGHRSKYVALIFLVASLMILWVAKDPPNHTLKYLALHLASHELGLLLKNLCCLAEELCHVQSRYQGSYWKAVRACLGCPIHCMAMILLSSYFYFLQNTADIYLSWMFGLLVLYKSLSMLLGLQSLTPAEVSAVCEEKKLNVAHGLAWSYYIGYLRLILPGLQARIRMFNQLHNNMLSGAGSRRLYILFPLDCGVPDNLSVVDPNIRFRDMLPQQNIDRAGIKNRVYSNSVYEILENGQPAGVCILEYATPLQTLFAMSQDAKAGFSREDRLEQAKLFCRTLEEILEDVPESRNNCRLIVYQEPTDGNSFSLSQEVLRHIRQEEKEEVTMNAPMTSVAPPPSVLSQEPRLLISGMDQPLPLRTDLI

[6] = biological target: T2, Stimulator of interferon genes protein (Mus musculus); experiment: Activation of STING signalling pathway in mouse RAW264.7 cells assessed as increase in CXCL10 mRNA level at 50 uM incubated for 24 hrs by qRT-PCR analysis; format: cell-based; conditions: filed as activator
[7] = biological target: T1, Stimulator of interferon genes protein; experiment: Activation of STING signalling pathway in human THP-1 cells assessed as increase in STING phosphorylation at 10 uM measured after 3 hrs by Western blot analysis; format: cell-based; conditions: filed as activator
[8] = biological target: T1, Stimulator of interferon genes protein; experiment: Activation of STING signalling pathway in human THP-1 cells assessed as increase in IRF3 phosphorylation at 10 uM measured after 3 hrs by Western blot analysis; format: cell-based; conditions: filed as activator
[9] = biological target: T1, Stimulator of interferon genes protein; experiment: Activation of STING signalling pathway in human THP-1 cells assessed as increase in TBK1 phosphorylation at 10 uM measured after 3 hrs by Western blot analysis; format: cell-based; conditions: filed as activator
[10] = biological target: T1, Stimulator of interferon genes protein; experiment: Activation of STING signalling pathway in human THP-1 cells assessed as increase in STING phosphorylation measured after 3 hrs by Western blot analysis; format: cell-based; conditions: filed as activator, dose 2-8 µM
[11] = biological target: T1, Stimulator of interferon genes protein; experiment: Activation of STING signalling pathway in human THP-1 cells assessed as increase in IRF3 phosphorylation measured after 3 hrs by Western blot analysis; format: cell-based; conditions: filed as activator, dose 2-8 µM
[12] = biological target: T1, Stimulator of interferon genes protein; experiment: Activation of STING signalling pathway in human THP-1 cells assessed as increase in TBK1 phosphorylation measured after 3 hrs by Western blot analysis; format: cell-based; conditions: filed as activator, dose 2-8 µM
CT26 [13] = experiment: Antitumor activity against mouse CT26 cells implanted in BALB/c mouse assessed as suppression of tumor growth at 0.25 mg/kg, iv administered on days 1,3, 5 and 8; format: functional, organism-based; conditions: time 8.0 day
CT26 [14] = experiment: Antitumor activity against mouse CT26 cells implanted in BALB/c mouse assessed as suppression of tumor growth at 1 mg/kg, ip administered on days 1,3, 5 and 8; format: functional, organism-based; conditions: time 8.0 day
CT26 [15] = experiment: Antitumor activity against mouse CT26 cells implanted in BALB/c mouse assessed as suppression of tumor growth at 5 mg/kg, IG administered on days 1,3, 5 and 8; format: functional, organism-based; conditions: time 8.0 day
[16] = tested on: Stimulator of interferon genes protein (Homo sapiens), Q86WV6 [UNDEFINED MUTATION]; experiment: Binding affinity to His-tagged wild type human STING R232 variant C-terminal domain (149 to 379 residues) expressed in Escherichia coli BL21 (DE3) cells incubated for 30 mins by thermal shift assay; conditions: filed as agonist
[17] = tested on: Stimulator of interferon genes protein (Homo sapiens), Q86WV6 [UNDEFINED MUTATION]; experiment: Binding affinity to human STING H232 variant incubated for 30 mins by thermal shift assay; conditions: filed as agonist
Homo sapiens = species on record: Homo sapiens; experiment: Binding affinity to human STING G230A-R293Q variant incubated for 30 mins by thermal shift assay; conditions: filed as agonist
[18] = biological target: T2, Stimulator of interferon genes protein (Mus musculus); experiment: Binding affinity to mouse STING incubated for 30 mins by thermal shift assay; conditions: filed as agonist

Row | Activity [1] | Activity [2] | Activity [3] | Activity [4] | Activity [5] | Activity [6] | Activity [7] | Activity [8] | Activity [9] | Activity [10] | Activity [11] | Activity [12] | Activity [16] | Activity [17] | Activity (Homo sapiens) | Activity [18] | Structure (SMILES) | Activity (CT26 [13]) | Activity (CT26 [14]) | Activity (CT26 [15])
1 | Active | Active | Dose-Dependent Effect | Dose-Dependent Effect | Active | Active | Active | Active | Active | Dose-Dependent Effect | Dose-Dependent Effect | Dose-Dependent Effect |  |  |  |  | CCn1nc(C)cc1C(=O)Nc1nc2cc(C(N)=O)cc(OC)c2n1CCCNc1ncc(-c2ccccc2C)o1 |  |  | 
2 | Active | Active | Dose-Dependent Effect | Dose-Dependent Effect | Active | Active | Active | Active | Active | Dose-Dependent Effect | Dose-Dependent Effect | Dose-Dependent Effect |  |  |  |  | CCn1nc(C)cc1C(=O)Nc1nc2cc(C(N)=O)cc(OC)c2n1CCCNc1ncc(-c2ccccc2C(F)(F)F)o1 | Active | Active | Active
3 |  |  |  |  |  |  |  |  |  |  |  |  | Active | Active | Active | Active | CCn1nc(C)cc1C(=O)Nc1nc2cc(C(N)=O)cc(OC)c2n1CCCNc1ncc(-c2ccccc2)o1 |  |  | 
